Results on two compounds are retold here after patent publication US20240293394A1, “METHODS FOR TREATING ANTIPSYCHOTIC-INDUCED WEIGHT GAIN” (priority 2010, published 2024).

Molecules are shown by their SMILES.

For series [1] the following is noted: patients; Taylor et al., Acta Psychiatr Scand. 2001; cited from earlier work.
Series [2] in a line: Olanzapine-related changes (body weight, adipose tissue, serum chemistry) in female cynomolgus monkeys. It counts as in vivo. As to conditions: olanzapine only. The protocol: Clinical observations and weight gain were assessed over a 28-day treatment period. […] Beginning two weeks prior to the study, monkeys were given ad libitum access to a highly palatable, high caloric diet. On the day prior to the start of treatment, monkeys were weighed and assigned to groups using a randomized block design based on body weight (BW); average BW across the 3 groups was 3.1+0.08 kg on the day of randomization. Also, baseline whole body CT scans were taken on the day prior to initiation of treatments. […] A second CT scan was conducted on day 29.

Take `Cc1nc2n(c(=O)c1CCN1CCC(c3noc4cc(F)ccc34)CC1)CCCC2` [risperidone, 4-[2-[4-(6-fluorobenzo[d]isoxazol-3-yl)-1-piperidyl]ethyl]-3-methyl-2,6-diazabicyclo[4.4.0]deca-1,3-dien-5-one]: the “weight gain associated with atypical antipsychotic” value in series [1] is on record as “greatest”.

On to `Cc1cc2c(s1)Nc1ccccc1N=C2N1CCN(C)CC1` [olanzapine, 2-methyl-4-(4-methyl-1-piperazinyl)-10H-thieno[2,3-b][1,5]benzodiazepine], for which the “average body weight gain” value in series [2] (PO twice daily, up to 6 mg/kg daily, 28 days, ad libitum high caloric diet) is listed as 0.46 kg. The “average body weight gain, % of Day 0 BW” value in series [2] (28 days) worked out at 15%. Also, in series [2] (serum, Day 28), the “concentration of LDL” value is on record as 105.8 mg/dL and the “concentration of triglycerides (TGs)” value stood at 86.6 mg/dL. Moreover, in series [1], the “weight gain associated with atypical antipsychotic” value is given as “greatest”.
